Structures can show the parent of a compound that is named as a salt.
Key:
Tolerance test = assay type: in vivo; conditions: continuous administration
[1] = tested on: evoked potentials in central nervous system; assay: Effect on the various evoked potentials in central nervous system; assay type: in vivo, Male Wistar rats; design: key to Amplitude of Evoked Responses, VP-COR / Amplitude of Evoked Responses, HIP-AMY / Amplitude of Evoked Responses, HIP-SEP: -: No change; --: No change; (+): Levallorphan antagonism; (-): Levallorphan antagonism
Description: Male Wistar rats, weighing 300-350 g, were used under ethyl ether anesthesia. The trachea and femoral vein were cannulated for artificial respiration and drug injection, respectively. Immobilization of the rat was maintained by gallamine thioethiodide (10 mg/kg) given intravenously every one hours. All wound edges were infiltration with carbocaine hydrochloride. The experiments began after at least 2 hours had elapsed from discontinuance of ether anesthesia. The COR (somatosensory cortex) evoked potentials by VP (neucleus ventralis posterior thalamus) stimulation (VP - COR evoked potential) were recorded from somatosensory cortex, through a silver electrode applied directly to the cortex. In order to record VP and MRF (midbrain reticular formation) evoked potentials by sciatic nerve stimulation or AMY (amygdala) and SEP (septum) evoked potentials by HIP (hippocampus) stimulation, bipolar stainless steel electrodes were stereotaxically placed into the VP, MRF, AMY, SEP and HIP. The stimuli were delivered to various sites every 2 seconds from a stimulation and consisted of 0.1 msec rectangular pulses (twice threshold intensity). The evoked responses were visualized on an oscilloscope. All records were made up of 20 superimposed tracings.

[2] = rat, in vivo
[3] = rat, in vivo; remark: listed apart in the source
in vivo = conditions: rat
Hot plate test = conditions: Rattus norvegicus, sc, read-out: Hot Plate Test ED50
Mouse jumping test = conditions: administration at a lethal dose
AgNO3 arthritis test = conditions: for ED50: Rattus norvegicus, sc, read-out: AgNO3 Arthritis Test ED50
Electric stimuli test = conditions: Mus musculus, read-out: Electric Stimuli Test ED50
[4] = Phenylquinone writhing test; conditions: for ED50: Mus musculus, read-out: Phenylquinone Writhing Test ED50
[5] = Bradykinin nociception test; conditions: for ED50: Rattus norvegicus, read-out: Bradykinin Nociception Test ED50
[6] = Antagonism by levallorphan in electric stimuli test; conditions: electric stimuli test in mice; levallorphan (narcotic antagonist)
central nervous system = assay: Activity on central nervous system; conditions: in vivo
[7] = Tooth pulp nociception test
[8] = Analgesic activity (overall)
[9] = calculated from inhibition (%) in a low dose

CN1C(=O)CCN(C2CCN(CCc3ccccc3)CC2)C1=O [Test compound C, 1-(1-phenethyl-4-piperidyl)-3-methyl-hydrouracil hydrochloride]
cross tolerance against codeine (Tolerance test): did not show a cross tolerance against codeine
tolerance (decrease of effects) (Tolerance test): did not cause a significant decrease of effects
Amplitude of Evoked Responses, HIP-AMY ([1]; 5 mg/kg i.v.): --
Amplitude of Evoked Responses, HIP-SEP ([1]; 5 mg/kg i.v.): --
Amplitude of Evoked Responses, VP-COR ([1]; 5 mg/kg i.v.): --
Amplitude of Evoked Responses, HIP-AMY ([1]; 10 mg/kg i.v.): --
Amplitude of Evoked Responses, HIP-SEP ([1]; 10 mg/kg i.v.): --
Amplitude of Evoked Responses, HIP-AMY ([1]; 25 mg/kg i.v.): --
Amplitude of Evoked Responses, HIP-SEP ([1]; 25 mg/kg i.v.): --
body weight reduction [2]: not reduced
compensatory adjustment against codeine [3]: had not compensatory adjustment against codeine
LD50 (in vivo; ip): 150 mg/kg
LD50 (in vivo; po): 900 mg/kg
LD50 (in vivo; sc): 700 mg/kg
ED50 (Hot plate test): 10 mg/kg
jumping symptom (Mouse jumping test): did not cause any jumping symptom
ED50 (AgNO3 arthritis test): 45 mg/kg
ED50 (Electric stimuli test; po): 220 mg/kg
ED50 (Electric stimuli test; sc): 50 mg/kg
ED50 ([4]; po): 5 mg/kg
ED50 ([4]; sc): 1.5 mg/kg
ED50 ([5]; po): 400 mg/kg
ED50 ([5]; sc): 70 mg/kg
Influence of levallorphan on analgesic activity [6]: did not influence the analgesic activity

CN1C(=O)CCN(C2CCN(CC=Cc3ccccc3)CC2)C1=O [Test compound A, 1-(1-cinnamyl-4-piperidyl)-3-methyl-hydrouracil hydrochloride]
cross tolerance against codeine (Tolerance test): did not show a cross tolerance against codeine
tolerance (decrease of effects) (Tolerance test): did not cause a significant decrease of effects
muscle relaxant activity (central nervous system): weak
reserpine potentiating activity (central nervous system): weak
suppression of spontaneous locomotor activity (central nervous system): weak
levallorphan antagonism of VP - COR response [1]: levallorphan did not antagonize the response
Amplitude of Evoked Responses, HIP-AMY ([1]; 5 mg/kg i.v.): --
Amplitude of Evoked Responses, HIP-SEP ([1]; 5 mg/kg i.v.): --
Amplitude of Evoked Responses, VP-COR ([1]; 5 mg/kg i.v.): --
Amplitude of Evoked Responses, HIP-AMY ([1]; 10 mg/kg i.v.): --
Amplitude of Evoked Responses, HIP-SEP ([1]; 10 mg/kg i.v.): --
Amplitude of Evoked Responses, HIP-AMY ([1]; 25 mg/kg i.v.): --
Amplitude of Evoked Responses, HIP-SEP ([1]; 25 mg/kg i.v.): --
HIP - AMY evoked potential ([1]; i.v.): no effect
HIP - SEP evoked potential ([1]; i.v.): no effect
amplitude of the VP - COR evoked potential ([1]; i.v.): reduced the amplitude of the VP - COR evoked potential
body weight reduction [2]: not reduced
compensatory adjustment against codeine [3]: had not compensatory adjustment against codeine
LD50 (in vivo; ip): 150 mg/kg
LD50 (in vivo; po): 450 mg/kg
LD50 (in vivo; sc): 300 mg/kg
ED50 (Hot plate test): 10 mg/kg
jumping symptom (Mouse jumping test): did not cause any jumping symptom
ED50 (AgNO3 arthritis test): 7 mg/kg
Relative potency (Test compound A = 1), AgNO3 Arthritis Test (AgNO3 arthritis test; calculated from ED50): 1
Relative potency (Test compound A = 1), AgNO3 Arthritis Test (AgNO3 arthritis test; [9]): 1
Inhibition (%) of Occurrence of Pain (AgNO3 arthritis test; rats, 5 mg/kg s.c.): 42%
ED50 (Electric stimuli test; po): 200 mg/kg
ED50 (Electric stimuli test; sc): 23 mg/kg
ED50 ([4]; po): 17 mg/kg
ED50 ([4]; sc): 1 mg/kg
Relative potency (Test compound A = 1), Phenylquinone Writhing Test ([4]; calculated from ED50): 1
Relative potency (Test compound A = 1), Phenylquinone Writhing Test [4, 9]: 1
Inhibition (%) of Occurrence of Pain ([4]; mice, 0.5 mg/kg s.c.): 48%
Relative potency (Test compound A = 1), Tooth Pulp Nociception Test ([7]; calculated from ED50): 1
Relative potency (Test compound A = 1), Tooth Pulp Nociception Test [7, 9]: 1
increasing rate in threshold ([7]; rabbits, 2.5 mg/kg i.v.): 75%
ED50 ([5]; po): 40 mg/kg
ED50 ([5]; sc): 4 mg/kg
Relative potency (Test compound A = 1), Bradykinin Nociception Test ([5]; calculated from ED50): 1
Relative potency (Test compound A = 1), Bradykinin Nociception Test [5, 9]: 1
Inhibition (%) of Occurrence of Pain ([5]; rats, 2.5 mg/kg s.c.): 38%
analgesic activity in a low dose [8]: stronger than tramadol and pentazocine
Influence of levallorphan on analgesic activity [6]: did not influence the analgesic activity

From patent US4514403A, “Hydrouracil compounds” (Yoshitomi Pharmaceutical Industries Ltd., priority 1980, dated 1985)
